Measurements: patent US20260200947A1, “FUSED CYCLIC COMPOUNDS AND USE THEREOF” (Jacobio Pharmaceuticals Co., Ltd., priority 2022, published 2026)
pIC50: −log10 of the molar value.

Columns and labels:
[1] = test system: AsPC-1 cells (K-Ras G12D)

Compound: C#Cc1c(F)ccc2cc(N)cc(-c3nc4c5c(nc(OC[C@@]67CCCN6C[C@H](F)C7)nc5c3F)N3CC(=O)COC[C@H]3N4C)c12 [Compound 155B]
- pIC50 (AGS cells (K-Ras G12D)): 8.12
- pIC50 [1]: 7.42
- pIC50 (SW620 cells (K-Ras G12V)): 7.78
